Some compounds may have been tested in ways that are not shown here. Marks after values point to notes of the source that are not given here.
Columns and labels:
[1] = Transdermal electrotransport fentanyl delivery at three constant DC current densities (Example 2); settings: for average transdermal fentanyl rate: 5 cm^2, 24 h
[2] = Transdermal electrotransport fentanyl delivery with pulsed current at 1, 10 and 625 Hz (Example 3, Table 1); settings: 31% duty cycle; for Rate of Fentanyl Delivery After Bolus Treatment: after 30 min DC bolus at 0.1 mA/cm^2; for fentanyl flux: 2 cm^2
[3] = Transdermal electrotransport fentanyl delivery, initial high current density boluses vs baseline current (Example 1)

## CCC(=O)N(c1ccccc1)C1CCN(CCc2ccccc2)CC1
[1]; 10 μA/cm^2 constant DC
  average transdermal fentanyl rate: 19 µg/h
[1]; 20 μA/cm^2 constant DC
  average transdermal fentanyl rate: 73 µg/h
[1]; 40 μA/cm^2 constant DC
  average transdermal fentanyl rate: 173 µg/h
[1]; current increased four-fold from 50 to 200 μA
  increase in drug rate: almost ten-fold increase
[2]; 1 Hz, pulse width 320 msec
  Rate of Fentanyl Delivery Without Bolus Treatment: 48** μg/hr.
  Rate of Fentanyl Delivery After Bolus Treatment: 48** μg/hr.
[2]; 10 Hz, pulse width 31 msec
  Rate of Fentanyl Delivery Without Bolus Treatment: 52** μg/hr.
  Rate of Fentanyl Delivery After Bolus Treatment: 52** μg/hr.
[2]; 200 μA pulse
  difference in fentanyl flux between 1 and 10 Hz: No statistically significant difference
[2]; 625 Hz, pulse width 0.5 msec
  Rate of Fentanyl Delivery Without Bolus Treatment: 7 µg/h
  Rate of Fentanyl Delivery After Bolus Treatment: 34 µg/h
[2]; pulsing frequencies 1 and 10 Hz, 200 μA pulse
  fentanyl flux: increased fentanyl flux
[2]; square-wave frequency 625 Hz, 200 μA pulse
  fentanyl flux: minimal fentanyl flux
[3]; four 260 μA/cm2 2.5 min boluses in first hour, then 20 μA/cm2 to 24 h, six volunteers
  mean transdermal fentanyl rate: 113 µg/h
[3]; only 20 μA/cm2 baseline current for 24 h, twelve volunteers
  mean transdermal fentanyl rate: 57 µg/h

— patent US7572252B1 (priority 1995, dated 2009)
